From ChEMBL document CHEMBL1144502, “Synthesis and biological evaluation of imidazo[1,2-a]pyridine derivatives as novel PI3 kinase p110alpha inhibitors” (Bioorg Med Chem, 2007)
pIC50: −log10 of the molar value.

By UniProt entry, the sequences of proteins in these tests, tags left out. Where a name states a change or a piece, a line headed by the entry shows the natural chain unless it says otherwise.
UniProt P48736: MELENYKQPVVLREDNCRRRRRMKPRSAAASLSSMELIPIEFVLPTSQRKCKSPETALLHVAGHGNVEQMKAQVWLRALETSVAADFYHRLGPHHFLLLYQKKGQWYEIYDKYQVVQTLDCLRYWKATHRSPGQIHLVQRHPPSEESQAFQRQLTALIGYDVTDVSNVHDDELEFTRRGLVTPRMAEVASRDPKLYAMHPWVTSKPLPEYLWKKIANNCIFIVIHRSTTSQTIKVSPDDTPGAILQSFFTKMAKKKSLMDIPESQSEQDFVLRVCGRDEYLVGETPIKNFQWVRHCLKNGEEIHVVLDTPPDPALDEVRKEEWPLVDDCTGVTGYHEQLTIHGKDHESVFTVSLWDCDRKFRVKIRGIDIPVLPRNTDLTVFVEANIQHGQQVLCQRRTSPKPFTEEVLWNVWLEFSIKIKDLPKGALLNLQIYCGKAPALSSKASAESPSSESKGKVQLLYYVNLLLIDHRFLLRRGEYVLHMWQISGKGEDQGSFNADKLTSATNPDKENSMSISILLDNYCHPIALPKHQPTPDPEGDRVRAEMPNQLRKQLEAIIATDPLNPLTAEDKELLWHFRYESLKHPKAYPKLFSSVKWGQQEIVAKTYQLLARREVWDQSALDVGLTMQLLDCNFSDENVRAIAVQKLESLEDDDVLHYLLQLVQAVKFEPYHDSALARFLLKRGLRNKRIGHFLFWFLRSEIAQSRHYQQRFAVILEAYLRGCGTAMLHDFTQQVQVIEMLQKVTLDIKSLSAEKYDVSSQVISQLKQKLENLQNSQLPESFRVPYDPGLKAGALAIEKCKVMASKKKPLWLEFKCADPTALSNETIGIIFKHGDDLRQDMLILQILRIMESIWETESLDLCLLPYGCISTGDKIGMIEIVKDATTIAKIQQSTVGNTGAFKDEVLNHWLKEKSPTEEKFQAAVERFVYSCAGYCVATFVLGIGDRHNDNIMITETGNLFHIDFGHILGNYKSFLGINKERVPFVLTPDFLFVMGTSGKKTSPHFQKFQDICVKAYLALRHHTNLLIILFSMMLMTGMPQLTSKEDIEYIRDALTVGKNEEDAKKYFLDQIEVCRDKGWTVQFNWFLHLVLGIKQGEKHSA
UniProt P42338: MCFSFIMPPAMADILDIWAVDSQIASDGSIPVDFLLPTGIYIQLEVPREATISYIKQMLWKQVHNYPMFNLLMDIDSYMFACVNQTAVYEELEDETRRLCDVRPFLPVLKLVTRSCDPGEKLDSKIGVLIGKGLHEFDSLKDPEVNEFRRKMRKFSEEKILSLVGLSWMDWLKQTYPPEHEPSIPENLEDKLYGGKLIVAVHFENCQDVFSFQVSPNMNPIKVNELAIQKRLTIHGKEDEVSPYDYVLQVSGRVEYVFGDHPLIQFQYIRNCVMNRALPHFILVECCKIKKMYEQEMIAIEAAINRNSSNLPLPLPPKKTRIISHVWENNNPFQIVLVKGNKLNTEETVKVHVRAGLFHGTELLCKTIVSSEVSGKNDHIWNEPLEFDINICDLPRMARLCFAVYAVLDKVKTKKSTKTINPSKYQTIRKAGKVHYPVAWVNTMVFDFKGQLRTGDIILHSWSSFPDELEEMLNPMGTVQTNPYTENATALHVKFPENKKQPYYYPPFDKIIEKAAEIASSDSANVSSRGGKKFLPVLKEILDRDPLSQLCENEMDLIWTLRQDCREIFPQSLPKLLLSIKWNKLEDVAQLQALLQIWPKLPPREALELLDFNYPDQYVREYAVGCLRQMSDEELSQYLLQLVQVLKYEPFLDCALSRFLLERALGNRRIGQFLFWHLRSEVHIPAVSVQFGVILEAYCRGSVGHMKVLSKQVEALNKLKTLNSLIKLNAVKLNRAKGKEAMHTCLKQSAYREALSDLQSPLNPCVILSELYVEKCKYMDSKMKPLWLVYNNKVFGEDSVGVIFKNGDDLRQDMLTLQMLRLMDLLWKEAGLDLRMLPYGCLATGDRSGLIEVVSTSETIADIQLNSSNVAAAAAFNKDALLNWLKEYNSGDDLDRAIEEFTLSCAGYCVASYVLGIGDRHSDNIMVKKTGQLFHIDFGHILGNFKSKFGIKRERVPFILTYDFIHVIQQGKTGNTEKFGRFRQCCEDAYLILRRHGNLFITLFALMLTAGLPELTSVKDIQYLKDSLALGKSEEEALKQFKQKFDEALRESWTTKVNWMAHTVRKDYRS

Experiments:
[1] = target: Phosphatidylinositol 4,5-bisphosphate 3-kinase catalytic subunit gamma isoform (Homo sapiens, UniProt P48736); assay: Inhibition of His-tagged PI3K p110gamma by SPA
Outline: (§1)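 Radiometric SPA. Enzyme and compound (in DMSO) in 20 mM Tris-HCl pH 7.4, 160 mM NaCl, 2 mM DTT, 30 mM MgCl2, 0.4 mM EDTA, 0.4 mM EGTA. Run 120 min at room temperature. Stopped with wheat germ agglutinin-coated SPA beads in PBS, then centrifuged. IC50 is the mean of at least two determinations.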

[2] = target: Phosphatidylinositol 4,5-bisphosphate 3-kinase catalytic subunit beta isoform (Homo sapiens, UniProt P42338); assay: Inhibition of GST-tagged human PI3K p110-beta by SPA; outline: as §1

O=c1cc(N2CCOCC2)oc2c(-c3ccccc3)cccc12 [LY-294002]
pIC50 [1]: 5.80
pIC50 [2]: 6.47
